Measured values taken from patent EP4834882A1, “ALDOSTERONE SYNTHETASE INHIBITOR, AND PREPARATION METHOD THEREFOR AND USE THEREOF” (dated 2026).

Experiments:
[1] = Rat pharmacokinetic study; conditions: SD rats
Text: • SD rats: male, 180-250g, purchased from Beijing Vital River Laboratory Animal Technology Co., Ltd. • Reagents: DMSO (dimethyl sulfoxide), PEG-400 (polyethylene glycol 400), saline, heparin, acetonitrile, formic acid, and propranolol (internal standard) are all commercially available. Instrument: AB SCIEX QTRAP 5500+.
The compounds of Examples 1-49 of the present invention were weighed and dissolved in a DMSO-PEG-400-saline (5:60:35, v/v/v) system. Following intravenous or intragastric administration to rats, venous blood samples (200 µL) were collected into EDTA-K2 anticoagulant tubes at the following time points: 15 min, 30 min, 1 h, 2 h, 5 h, 7h, and 24 h (with an additional 5-min time point for the i.v. group). The samples were centrifuged at 12,000 rpm for 2 minutes, and the obtained plasma was stored at -80°C until analysis. A certain amount of the test sample was accurately weighed and dissolved in DMSO to 2 mg/mL as a stock solution. An appropriate amount of the stock solution of each test compound was accurately pipetted and diluted with acetonitrile to prepare a series of standard solutions. 10 µL of each of the above series of standard solutions was accurately pipetted, to which was added 90 µL of blank plasma, and vortexed to prepare plasma samples with plasma concentrations equivalent to 1, 3, 5, 10, 30, 100, 300, 1000, 3000 ng/mL. Duplicate samples were analyzed for each concentration to establish a standard curve. 30 µL aliquot of each plasma sample was used (samples from the 5, 15, and 30 min i.v. time points were diluted 5-fold prior to analysis). Then, 150 µL of acetonitrile containing the internal standard propranolol (50 ng/mL) was added. After vortexing, 100 µL of purified water was added, and the mixture was vortexed again, followed by centrifugation at 4000 rpm for 5 minutes. The supernatant was collected and analyzed by LC-MS.
The LC-MS analysis was performed under the following conditions: Chromatographic column: YMC Triart C18, 50×3.0mm, 2.1µm. Mobile phase: gradient elution with a mixture of water (containing 0.1% formic acid) and acetonitrile as described in the table below:
After the plasma concentration was determined by LC-MS, the pharmacokinetic parameters were calculated using WinNonlin 6.1 software with a non-compartmental model. Table 2 Pharmacokinetic results of the compounds of the present invention in rats

[2] = In vitro hepatic microsome stability; conditions: Human hepatic microsomes
Procedure: The compounds of Examples 1-49 (test substances) and the positive control drug were dissolved in DMSO to prepare stock solutions (10 mM). The stock solutions were diluted with acetonitrilewater (1:1, v/v) to obtain 100 µM solutions, which was further diluted with 0.1 M potassium phosphate buffer to obtain working solutions (30 µM).
NADPH powder was weighed and dissolved in 0.1 M potassium phosphate buffer to obtain a 5 mg/mL solution.
Hepatic microsomes from each species (20 mg/mL) were diluted with 0.1 M potassium phosphate buffer to parepare 0.8 mg/mL hepatic microsome working solutions.
25 µL of the test substance or positive control drug working solution was added to 475 µL of the hepatic microsome working solution and mixed thoroughly. The mixture was aliquoted into a 96-well plate at 30 µL/well (n=2). For the 0 min samples, 150 µL of internal standard acetonitrile solution was added to precipitate proteins, followed by the addition of 15 µL of NADPH solution, and these samples were then stored in a refrigerator at 4°C. Other samples were pre-incubated at 37°C for 10 min. For the 20 min and 60 min samples, 15 µL of NADPH solution was added to initiate the reaction. For samples without NADPH, 15 µL of potassium phosphate buffer was added instead. All samples were then incubated at 37°C. Upon reaching the designated reaction time, 150 µL of internal standard acetonitrile solution was added to precipitate proteins.
The precipitated samples were vortexed and then centrifuged at 4000 rpm for 5 min. 100 µL of purified water was added to the supernatant , followed by LC-MS analysis.
The peak area ratio of the analyte to the internal standard was used to calculate the relative percentage of the compound remaining after incubation (remaining rate %) and for exponential function fitting. The calculation formula was as follows: [formula] [formula] [formula]

An AUClast ([1]; 1 mg/kg, i.v) of 9650 ng·h/mL, a Cmax ([1]; 1 mg/kg, i.v) of 3360 ng/mL and a T1/2 ([1]; 1 mg/kg, i.v) of 3.06 h were found for CCC(=O)N[C@@H]1CCCc2c(-c3ccc4c(C#N)nccc4c3)cncc21 in this work. The AUClast ([1]; 5 mg/kg, p.o) was 42600 ng·h/mL, the Cmax ([1]; 5 mg/kg, p.o) was 4620 ng/mL and the T1/2 ([1]; 5 mg/kg, p.o) was 2.57 h. The “T1/2” value ([2]; with NADPH, 37°C) was 31.8 h and the ER ([2]; slow metabolism ER<0.3, moderate 0.3<ER<0.7, fast ER>0.7) was 0.04.
